Measured values taken from PubChem BioAssay AID593 (National Center for Advancing Translational Sciences (NCATS), 2007).
The list shows a part of the results, in another mix than the full data. Records with an inconclusive call do not appear. Active and inactive are the calls of the source. Cut-off read from the data, not from the text of the source: active = max fluorescein-equivalent concentration above about 10 nM; inconclusive = between about 1.1 nM and that limit; inactive = weaker than that.

Experiment: qHTS Assay for Spectroscopic Profiling in Fluorescein Spectral Region
Details: Compound autofluorescence, 480/540 nm, fluorescein-equivalent
From the text: NIH Molecular Libraries Screening Centers Network [MLSCN]
NIH Chemical Genomics Center [NCGC]
Occasionally, the artifactual effect may originate from the compound's own spectral or other biophysical properties which generally tend to track its assay concentration. Pre-screening/profiling the library with respect to the compounds' spectral properties should help one exclude false positives early on. While the most informative fluorescent profiling data set is obtained by performing a full excitation and emission scan of each well by using a monochromator-based plate reader, such an approach is practical only on a very limited scale as scanning each well requires long time. An alternative approach, applied here, is to perform plate reader scans using selected excitation and emission wavelength pairs to generate a multidimensional relational database that correlates compound concentration and the respective relative fluorescence intensity at a given wavelength set. A standard curve of fluorescein present on each plate as six-point concentration series, was used to compute a normalized fluorescence response, termed dye-equivalent concentration, for each compound at each concentration.
NCGC Assay Protocol Summary:
100 mM Tris buffer, pH 8.0
The wells in columns 1 through 4 of a Kalypsys polypropylene 1536-well compound plate were filled with standard solutions of fluorophore corresponding to the spectral region of interest. Solutions of Fluorescein were placed in the following wells: Q1, R1: 3 mM, Q2, R2: 300 uM, Q3, R3: 30 uM, Q4, R4: zero (DMSO), S1, T1: 3 uM, S2, T2: 900 nM, S3, T3: 300 nM, S4, T4: zero (DMSO).
Six uL of buffer were dispensed to 1536-well Greiner black plates. Compounds and dye standards (23 nL) were transferred via Kalypsys PinTool. The plates were incubated for 15 min at room temperature, and then read on ViewLux (Perkin-Elmer) High-throughput CCD imager using 480 nm and 540 nm excitation and emission filter set.
Keywords: NIH Roadmap, MLSCN, MLI, MLSMR, qHTS, NCGC, Fluorescein, Fluorescent Profiling.

Row | SMILES | outcome
1 | CCN(CC)CC(O)COC(=O)C(O)(c1ccccc1)C1CCCCC1 (stereo not drawn) | inactive
2 | COc1ccccc1OP(C)(=O)Nc1c(C)n(C)n(-c2ccccc2)c1=O (stereo not drawn) | inactive
3 | CCc1nc2c(n1)c1c(non1O)c1c2no[n+]1[O-] | inactive
4 | O=C(CO)Nc1ccc([As](=O)(O)O)cc1 | inactive
5 | COc1ccccc1OP(C)(=O)Nc1ccc(C)c(C)c1 (stereo not drawn) | inactive
6 | Cc1nc2ccc3ccccc3c2o1.O=[N+]([O-])c1cc([N+](=O)[O-])c(O)c([N+](=O)[O-])c1 | inactive
7 | C(Cc1nn[nH]n1)c1nn[nH]n1 | inactive
8 | O=P1(Nc2nc3ccc(Cl)cc3s2)COc2ccccc2O1 (stereo not drawn) | inactive
9 | CP(=O)(Nc1ccccc1F)Oc1ccccc1 (stereo not drawn) | inactive
10 | COC(=O)c1cc2c(s1)N=C(c1ccccc1)N(C)P2(=O)N1CCOCC1 (stereo not drawn) | inactive
11 | CN(C)CCOC(=O)C(O)(c1ccccc1)C1CCCCC1 (stereo not drawn) | inactive
12 | [N-]=[N+]=Nc1ccc([As](=O)(O)O)cc1 | inactive
13 | O=C(OC1CN2CCC1CC2)c1cccc(Cl)c1 (stereo not drawn) | inactive
14 | c1nnnn1CCn1cnnn1 | inactive
15 | C[C@@H](O)COc1ccc([As](=O)(O)O)cc1N | inactive
16 | NNC(NN)NN.n1nc(-c2nn[nH]n2)n[nH]1 | inactive
17 | CN(CCCl)Cc1cc(Cl)c(NC2=NCCN2)c(Cl)c1 | inactive

Row | SMILES | outcome
18 | Clc1n[nH]nc1-c1nn[nH][15n]1 | inactive
19 | Cc1nc2ccc3ccccc3c2s1.O=[N+]([O-])c1cc([N+](=O)[O-])c(O)c([N+](=O)[O-])c1 | inactive
20 | CN(C(=O)Cc1ccc(Cl)c(Cl)c1)[C@@H]1CCCC[C@H]1N1CCCC1 | inactive
21 | O=P1(Nc2ncccn2)COc2ccccc2OC1 | inactive
22 | Cc1ccc(OCC(=O)OC2CN3CCC2CC3)cc1 (stereo not drawn) | inactive
23 | O=P(Nc1nccs1)(c1ccccc1)c1nc2ccccc2s1 (stereo not drawn) | inactive
24 | O=[As](O)(O)c1ccc([As](=O)(O)O)cc1 | inactive
25 | NC(=O)Nc1ccc([As](=O)(O)O)cc1 | inactive
26 | NS(=O)(=O)Cc1ccc([As](=O)(O)O)cc1 | inactive
27 | O=C(CC(=O)c1ccccc1)O[C@H]1CN2CCC1CC2 | inactive
28 | COc1ccccc1OP(C)(=O)Nc1ccc(C)cc1 (stereo not drawn) | inactive
29 | O=[As]c1ccc(S(=O)(=O)NCCO)cc1 (stereo not drawn) | inactive
30 | N1=C(c2nnc(-c3nn[nH]n3)nn2)NNN1 | inactive
31 | CP(=O)(NC(=O)Nc1ccccc1)Oc1ccccc1 (stereo not drawn) | inactive
32 | O=C(COc1ccccc1)OC1CN2CCC1CC2 (stereo not drawn) | inactive
33 | O=C(O)[C@@H](O)c1ccc([As](=O)(O)O)cc1 | inactive
